Structures are written as SMILES. pIC50: −log10 of the molar value. Like-named read-outs stand apart in the source and are kept apart here.

Amino acid sequences for entries named in this document (tags omitted). A change or cut given only in a name is not applied to a line headed by its entry.
UniProt P42338: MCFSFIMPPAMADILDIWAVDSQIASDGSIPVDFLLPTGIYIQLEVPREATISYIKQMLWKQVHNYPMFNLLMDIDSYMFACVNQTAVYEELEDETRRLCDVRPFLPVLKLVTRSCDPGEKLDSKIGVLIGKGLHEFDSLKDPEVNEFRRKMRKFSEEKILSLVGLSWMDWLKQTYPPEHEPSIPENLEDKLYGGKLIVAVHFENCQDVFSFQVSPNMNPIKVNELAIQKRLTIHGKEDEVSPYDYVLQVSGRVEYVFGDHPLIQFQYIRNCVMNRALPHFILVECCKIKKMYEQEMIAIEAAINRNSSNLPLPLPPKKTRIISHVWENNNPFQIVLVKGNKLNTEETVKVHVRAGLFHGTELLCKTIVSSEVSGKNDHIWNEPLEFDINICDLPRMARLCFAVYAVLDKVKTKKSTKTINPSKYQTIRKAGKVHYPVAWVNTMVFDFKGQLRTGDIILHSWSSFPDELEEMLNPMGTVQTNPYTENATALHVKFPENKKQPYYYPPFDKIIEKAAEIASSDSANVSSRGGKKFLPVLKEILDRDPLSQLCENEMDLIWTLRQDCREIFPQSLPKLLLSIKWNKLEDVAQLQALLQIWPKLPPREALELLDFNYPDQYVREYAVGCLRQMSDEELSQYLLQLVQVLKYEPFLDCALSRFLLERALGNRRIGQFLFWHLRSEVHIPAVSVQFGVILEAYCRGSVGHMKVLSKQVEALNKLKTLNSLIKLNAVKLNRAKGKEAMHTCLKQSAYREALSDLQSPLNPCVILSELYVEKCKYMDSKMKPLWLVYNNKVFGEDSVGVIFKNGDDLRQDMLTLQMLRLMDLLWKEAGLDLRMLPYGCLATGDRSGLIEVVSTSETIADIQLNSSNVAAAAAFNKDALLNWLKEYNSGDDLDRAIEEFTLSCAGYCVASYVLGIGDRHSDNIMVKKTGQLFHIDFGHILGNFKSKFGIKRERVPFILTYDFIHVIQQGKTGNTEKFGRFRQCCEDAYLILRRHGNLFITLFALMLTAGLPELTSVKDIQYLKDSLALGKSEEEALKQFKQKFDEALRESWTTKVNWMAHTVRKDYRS

The target of assay [1] is T1, PI3Kβ (p110β/p85α) (Homo sapiens, UniProt P42338). To be noted: read-out: published IC50; p110β/p85α enzyme; cited from earlier work.
Assay [2] concerns the target T1, PI3Kβ (p110β/p85α). As to the kind of experiment: HTRF assay, potency against active PI3Kβ. In kind it is biochemical. For orientation: TR-FRET usually uses a lanthanide donor and a delayed reading to cut background.

Consider `O=c1cc(N2CCOCC2)oc2c(-c3ccccc3)cccc12` [LY294002, reference compound], for which the pIC50 on PI3Kβ (p110β/p85α) [1] and at PI3Kβ (p110β/p85α) [2] was below 6.00 each time.

These data come from patent US20110230476A1 (published 2011).
